Reference: patent publication US20250041259A1, “TOPICAL COMPOSITIONS FOR REDUCING SCARRING” (Omeza Holdings, Inc., priority 2022, published 2025)

Conditions: @185° F.

For zinc acetate, the “amount dissolved in Example 16 oils” value was 0.08 g/100 g.
